In ChEMBL document CHEMBL3259780, “3-Substituted-N-(4-hydroxynaphthalen-1-yl)arylsulfonamides as a novel class of selective Mcl-1 inhibitors: structure-based design, synthesis, SAR, and biological evaluation” (J Med Chem, 2014) one finds Ratio Ki data, which are given here for one molecule.

For experiment [1], the species on record is Homo sapiens. Nature of the experiment: Selectivity ratio of Ki for His-tagged A1-BFL-1 (1 to 151) (unknown origin) to Ki for His-tagged MCL1 (171 to 327) (unknown origin).
For experiment [2], the species on record is Homo sapiens. Nature of the experiment: Selectivity ratio of Ki for His-tagged BCLW (1 to 155) (unknown origin) to Ki for His-tagged MCL1 (171 to 327) (unknown origin).
Experiment [3] is filed under the species Homo sapiens. Nature of the experiment: Selectivity ratio of Ki for His-tagged BCLX-L (1 to 209) (unknown origin) to Ki for His-tagged MCL1 (171 to 327) (unknown origin).

On to `O=C(O)CSc1cc(NS(=O)(=O)c2ccc(Oc3ccccc3)cc2)c2ccccc2c1O`, for which the Ratio Ki in experiment [1] was 19; in experiment [2], 9; in experiment [3] it was 59.
